Here are results for one compound from ChEMBL document CHEMBL3508140 (2016).

A word on the half-life: it is the time in which the quantity being followed falls by half. A high value points to slow decline.

The nature of data set [1]: Terminal half-life of epirubicin following intravenous epirubicin at 150 mg.m-2 dose in advanced cancer patients. In kind it is ADME, organism-based. The conditions noted are these: human, plasma.
A short description of data set [2]: Intermediate phase half-life of epirubicin following intravenous epirubicin at 25-35 mg.m-2 dose in cancer patients. The conditions noted are these: human, in vivo. It is filed as ADME, organism-based, Plasma.
A short description of data set [3]: Initial phase half-life of epirubicin following intravenous epirubicin at 40-60 mg.m-2 dose in cancer patients. It is filed as ADME, organism-based, Plasma. As to conditions: human, in vivo.
The nature of data set [4]: Mean terminal half-life of epirubicin following intravenous epirubicin at 60 mg.m-2 dose in cancer patients. In kind it is ADME, organism-based. As to conditions: human, plasma.
The nature of data set [5]: Intermediate phase half-life of epirubicin following intravenous epirubicin at 60 mg.m-2 dose in cancer patients. It is filed as ADME, organism-based, Plasma. The conditions noted are these: human, in vivo.
The nature of data set [6]: Intermediate phase half-life of epirubicin following intravenous epirubicin at 50 mg.m-2 dose in cancer patients. In kind it is ADME, organism-based, Plasma. The conditions noted are these: human, in vivo.
Data set [7] is described as follows: Half-life of terminal elimination phase of epirubicin following intravenous epirubicin at 70 mg.m-2 dose in cancer patients. In kind it is ADME, organism-based. As to conditions: human, plasma.

SMILES strings stand for the structures.

Consider `COc1cccc2c1C(=O)c1c(O)c3c(c(O)c1C2=O)C[C@@](O)(C(=O)CO)C[C@@H]3O[C@H]1C[C@H](N)[C@@H](O)[C@H](C)O1.Cl` [EPIRUBICIN HYDROCHLORIDE], for which the half-life in data set [1] is 30 h; in data set [4], 31 h; in data set [7], 30.1 h. For the same compound, the t1/2 is given as 1.04 h in data set [2], 1.8 min in data set [3], 1.08 h in data set [5] and 1.12 h in data set [6].
